From ChEMBL document CHEMBL1142740, “Pyrroloquinolone PDE5 inhibitors with improved pharmaceutical profiles for clinical studies on erectile dysfunction” (J Med Chem, 2005)
pIC50: −log10 of the molar value.

Biological target: cGMP-specific 3',5'-cyclic phosphodiesterase (Rattus norvegicus, UniProt O54735)
Test: Inhibitory concentration against phosphodiesterase 5 in rat fetal lung fibroblast (RFL-6) cells
Type: cell-based

pIC50: 9.40
Structure (SMILES): Oc1c2c(nc3ccccc13)C(c1ccc3c(c1)CCO3)N(c1ncc(-c3ccccn3)cn1)C2 (stereo unspecified)
